Results on one molecule are retold here after paper PMC3306125 (Journal of Medicinal Chemistry, 2012).

The test system of one assay is p21waf1. In words: Western blot of p21waf1 expression in DU-145 cells. The format is cell-based, human. The conditions noted are these: DU-145, 24 h; SAHA 2.5, 5 μM; DAU 0.1, 0.5 μM; 7 0.5, 1 μM; 12b 2.5, 5 μM. (In general: In western blotting, separated proteins are transferred to a membrane and probed.)
Assay [1] has as its system acetylated histones H4 and H3. Description: Western blot of histone H4 and H3 acetylation in DU-145 cells. The class given is cell-based, human. The following applies: DU-145, 24 h; SAHA 2.5, 5 μM; DAU 0.1, 0.5 μM; 7 0.5, 1 μM; 12b 2.5, 5 μM.

With `O=C(CCCCCCC(=O)Nc1ccccc1)NO` [SAHA, suberoylanilide hydroxamic acid, reference compound], the “p21waf1 expression (immunoblot)” value with p21waf1 is listed as “marked upregulation of p21”. In addition, in assay [1], the “histone H4 acetylation (immunoblot)” value was “strong histone H4 acetylation”.
